Results on one molecule are retold here after PMC9379334, “Determination of ceftriaxone in human plasma using liquid chromatography–tandem mass spectrometry” (Wellcome Open Research, 2022).

The nature of the data set: Stability of ceftriaxone in spiked human plasma under different storage conditions (LC-MS/MS). Type of data set: physicochemical. The following applies: -80°C; 7 months (224 days); all anticoagulants.

Turning to `CO/N=C(\C(=O)N[C@@H]1C(=O)N2C(C(=O)O)=C(CSc3nc(=O)c(=O)[nH]n3C)CS[C@H]12)c1csc(N)n1` [ceftriaxone], the “Long-term stability in plasma” value was “good stability”.
